In patent US20210221777A1, “NOVEL COMPOUNDS RELATED TO MY[…] METHODS OF TREATING CANCER” (priority 2020, published 2021):

System: pancreatic (PANC-1) tumor cell lines
Assay: Cytotoxicity vs. PANC-1 tumor cell line
Details: PANC-1, relative to 1

Substance: 8-O-acetyl-mycothiazole [8-O-acetyl-mycothiazole (2)]
- fold less potent than 1 (cytotoxicity): ten fold less potent
